Data on eleven compounds can be found in PubChem BioAssay AID1416 (The Scripps Research Institute Molecular Screening Center, 2008).

Chains of the proteins cited; added tags and fusions are not shown.
UniProt Q9NZJ5, whole entry: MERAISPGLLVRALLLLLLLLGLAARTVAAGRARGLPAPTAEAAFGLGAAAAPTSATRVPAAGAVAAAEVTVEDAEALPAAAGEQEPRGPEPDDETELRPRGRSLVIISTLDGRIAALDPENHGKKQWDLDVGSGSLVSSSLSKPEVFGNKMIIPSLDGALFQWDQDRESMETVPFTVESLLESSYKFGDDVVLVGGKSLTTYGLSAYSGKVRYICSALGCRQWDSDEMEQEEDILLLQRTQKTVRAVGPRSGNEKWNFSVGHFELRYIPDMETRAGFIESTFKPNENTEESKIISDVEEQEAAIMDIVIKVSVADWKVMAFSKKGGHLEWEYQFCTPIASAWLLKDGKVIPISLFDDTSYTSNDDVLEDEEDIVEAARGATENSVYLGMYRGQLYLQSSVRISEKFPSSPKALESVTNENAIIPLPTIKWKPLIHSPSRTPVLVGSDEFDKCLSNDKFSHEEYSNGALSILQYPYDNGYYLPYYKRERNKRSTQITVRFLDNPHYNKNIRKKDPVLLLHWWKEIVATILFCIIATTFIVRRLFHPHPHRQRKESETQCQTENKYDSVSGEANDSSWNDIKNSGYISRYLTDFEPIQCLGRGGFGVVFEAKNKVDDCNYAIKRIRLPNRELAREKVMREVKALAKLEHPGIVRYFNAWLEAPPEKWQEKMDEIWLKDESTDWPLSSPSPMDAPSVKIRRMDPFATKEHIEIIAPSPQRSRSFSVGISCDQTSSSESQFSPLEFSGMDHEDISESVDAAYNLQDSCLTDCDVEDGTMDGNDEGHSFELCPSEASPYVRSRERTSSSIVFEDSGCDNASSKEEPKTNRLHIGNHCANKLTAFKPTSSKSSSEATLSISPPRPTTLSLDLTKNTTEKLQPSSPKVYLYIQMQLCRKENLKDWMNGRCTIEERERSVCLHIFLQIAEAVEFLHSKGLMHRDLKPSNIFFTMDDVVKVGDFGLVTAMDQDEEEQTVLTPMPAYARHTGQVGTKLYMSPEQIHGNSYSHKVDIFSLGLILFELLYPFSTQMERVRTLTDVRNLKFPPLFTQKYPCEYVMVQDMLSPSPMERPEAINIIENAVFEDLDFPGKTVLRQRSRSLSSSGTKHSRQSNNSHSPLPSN

In general, inhibition refers to the drop in the measured response relative to a control, in per cent.

The entries are a selection whose mix differs from that of the whole data set. Some tests of the compounds listed are not included; inactive here does not mean inactive elsewhere. Activity calls are given as the source filed them.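 Rule for the calls: active = inhibition above the mean inhibition of all tested compounds plus 3 SD, set separately per screening campaign (cut at about 2.9% in these data); inactive = the rest.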

For the assay, the target named is Eukaryotic translation initiation factor 2-alpha kinase 3 (Homo sapiens) (UniProt Q9NZJ5). Kind of assay: block of dimerizer-induced PERK translation repression, primary screen, PERK inhibitor project, CHO PERK-DD cells, SEAP luminescence, HTS (AID 1416).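 Note: PERK kinase domain activated by AP20187 dimerizer at 100 nM; 0% = DMSO with dimerizer and 100% = rapamycin at 8.4 µM.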 The note with it: CHO PERK-DD fusion, SEAP luminescence translation reporter; at 5.6 µM; stronger effect = higher value.
Take `O=C(OC1CN2CCC1CC2)C(CO)(c1ccccc1)c1ccccc1` (stereo unspecified): the inhibition was inactive: -0.63%.
Next, `COc1ccc(Br)c(C(=O)NCC2(N3CCCCC3)CCCCC2)c1`: inactive: 1.63%; `CN(C)c1cccc(C(=O)NCC2(N(C)C)CCCCC2)c1`: inactive: 0.04%.
As to `COc1cccc(C(=O)NCC2(N3CCCCC3)CCCCC2)c1`, the inhibition was inactive: -0.15%.
To `Cc1ccccc1C(=O)NCC1(N2CCCCC2)CCCCC1` belongs inactive: -0.19%; to `CN(C)C1CCCC1OC(=O)C(O)(c1ccccc1)c1ccccc1` (stereo unspecified), inactive: 0.48%; to `C=CCN1CCN(CCOC(=O)C(O)(c2ccccc2)c2ccccc2)CC1`, inactive: 0.12%.
`CCN1CCCC(OC(=O)C2(O)c3ccccc3C=Cc3ccccc32)C1` (stereo unspecified): the inhibition was inactive: -0.47%.
Next, `O=C(NCC1(N2CCCCC2)CCCCC1)c1cc([N+](=O)[O-])ccc1Cl`: inactive: -0.27%; `CC(C)N1C(=O)CC2(CCN(CCOC(=O)C(O)(c3ccccc3)c3ccccc3)CC2)C1=O`: inactive: 1.14%.
To `CCN(CC)CC(C)C(C)OC(=O)C(O)(c1ccccc1)c1ccccc1` (stereo unspecified) belongs inactive: -0.97%.
